The text below walks through data of patent publication US20240254225A1 (INOTREM, published 2024).

Positions count from the first letter of the chain named.

To fix the notation:
T1: recombinant cynomolgus monkey TREM-1 (cynomolgus monkey, UniProt A0A2K5VHG8 21-204)
T1 construct: Soluble recombinant protein injected as SPR analyte; construct not described; also called cTREM-1; cynomolgus TREM-1
T1 sequence: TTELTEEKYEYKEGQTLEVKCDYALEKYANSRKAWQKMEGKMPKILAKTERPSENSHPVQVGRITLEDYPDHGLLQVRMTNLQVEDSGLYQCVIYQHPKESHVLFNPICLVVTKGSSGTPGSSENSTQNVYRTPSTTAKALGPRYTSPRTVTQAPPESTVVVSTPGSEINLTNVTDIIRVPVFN

B1: humanized anti-TREM-1 Fab fragment INO-10F-1 (Fab, V domains shown)
VH: EVQLVESGGALVKPGGSLRLSCAASGFNIKNTYIHWVRQAPGKGLEWIGRIDPANGNTKYAPKVQGRFTISADTSKNTAYLQMNSLKTEDTAVYYCTGHYGSTMDYWGQGTLVTVSS
VL: EIVLTQSPATLSLSPGERATLSCRASESVDNYGISFMNWFQQKPGQAPRLLIYAASNQGSGIPARFSGSGSGTDFTLTISSLEPEDFAVYFCQQSKEVPWTFGQGTKVEIK
notes: Fab; CDRs identical to INO-10F except for one amino acid in VH-CDR2
B2: humanized anti-TREM-1 Fab fragment INO-10F-3 (Fab, V domains shown)
VH: B1 VH with K30D, N55G, N57R, A61D, Q65K, S102G
VL: B1 VL with M37L, F40Y, S56E, N57Y, Q58R, S60R, F91Y, K96R, E97H, W100Y
notes: Fab
B3: humanized anti-TREM-1 Fab fragment INO-10F-4 (Fab, V domains shown)
VH: B1 VH with K30G, I48V, N55G, N57R, Q65K, T74D, Y100R, S102G
VL: EIVLTQSPATLSLSPGERATLSCRASQSVSNYGISFLNWYQQKPGQAPRLLIYAAEYRGRGIPARFSGSGSGTDFTLTISSLEPEDFAVYYCQQSSNVPYTFGQGTKVEIK
notes: Fab
B4: humanized anti-TREM-1 Fab fragment INO-10F-2 (Fab, V domains shown)
VH: B1 VH with K30G, N55G, N57R, A61S, D73P, Y100R, S102G
VL: B3 VL with E56S, R58Q, G59K, V98F, Y100W
notes: Fab
B5: humanized anti-TREM-1 Fab fragment INO-10F-6 (Fab, V domains shown)
VH: B1 VH with K30G, I48V, N55G, N57R, Q65K, T74D, A79L, Y100R, S102G
VL: B3 VL with G59A
notes: Fab
B6: humanized anti-TREM-1 Fab fragment INO-10F-5 (Fab, V domains shown)
VH: B1 VH with K30G, N55G, N57R, S102G
VL: B3 VL with R58Q, V108L
notes: Fab; also called E5
B7: anti-hTREM-1 Fab fragment INO-10F (Fab, V domains shown)
VH: AVQLQQSVAALVRPGASVKLSCTASGFNIKNTYIHWVKQRPEQGLEWIGRIDPANGNTKYAPKFQGKATITADTSSDTAYLQLSSLTSDDTAIYYCTGHYGSTMDYWGQGTSVTVSS
VL: not shown
notes: Recombinant chimeric Fab (murine variable regions) made in CHO cells and purified on HisTrap Excel; also called INO-10 Fab

The target in the first assay is T2, human TREM-1 expressed on cells (U937-vitD3 cells, THP-1-vitD3 cells, human primary neutrophils, whole blood … (human, UniProt Q9NP99 21-234)). Briefly: cell-based or functional assay.
Turning to B1, the “IL-6 release by U937-vitD3 cells stimulated with the PGLYRP-1:PGN complex; IC50” value was roughly 0.5 µg/mL.

Consider B2, for which the “IL-6 release by U937-vitD3 cells stimulated with the PGLYRP-1:PGN complex; IC50” value is roughly 0.05 µg/mL.

The target in the next assay is T3, recombinant human TREM-1 (human, UniProt Q9NP99 21-205).
T3 construct: Soluble recombinant protein injected as SPR analyte; also called hTREM-1
Briefly: SPR, Fab immobilised, human TREM-1 injected; average. The protocol: (§1) Surface plasmon resonance (SPR): in order to evaluate the interaction kinetics for TREM-1 antibodies or Fabs to hTREM-1 (human TREM-1) and cTREM-1 (cynomolgus monkey TREM-1), surface plasmon resonance (SPR) assays were carried out (Biacore™ T200, GE Healthcare Biosciences). The anti-human Fc antibodies (Cytiva) were immobilized on CM5 sensor chip in order to evaluate IgG1 affinities and Fabs were directly immobilized on the chip. Immobilization experiments were performed at 25° C. using HBS-EP+1× running buffer (10 mM HEPES, 150 mM NaCl, 3 mM EDTA, 0.05% surfactant P20, pH 7.4). The anti-human Fc antibodies or Fabs were diluted in 10 mM sodium acetate at acidic pH before the immobilization procedure using amine coupling on the dextran matrix of the sensor chips. […] Following these injections, ethanolamine was injected to deactivate the surface. The immobilization wizard was used to obtain several thousand of immobilized RU (resonance units). The immobilization level was chosen in order to have a proper covering of the sensor chip surface. […] Binding of hTREM-1 or cTREM-1 proteins was conducted by injecting analyte over all flow cells. […] The concentrations were evaluated using the Single Cycle Kinetics method. This approach consists of a sequential injection of increasing concentration of the analyte, with a single regeneration step using a magnesium chloride buffer (Cytiva) at the end of the cycle. Binding affinity of TREM-1 antibodies or Fabs with hTREM-1 or cTREM-1 was quantified by determination of the equilibrium dissociation constant (KD) determined by measurement of the kinetics of complex formation and dissociation.
Background: Surface plasmon resonance follows binding to a sensor surface in real time, without labels.
On to B1, for which the Kd – broadly, the concentration at which binding is half-saturated – came out at 6.79 nM; the koff (as a rule, the first-order rate constant of dissociation) worked out at 0.00117 s⁻¹; the kon (usually a measure of how fast the partners come together) is 174000 M⁻¹ s⁻¹.

As for B3, the Kd was 1.02 nM, the koff came to 0.000217 s⁻¹ and the kon was 213000 M⁻¹ s⁻¹.

For B2, the Kd was 0.301 nM, the koff was 6.07e-05 s⁻¹ and the kon came out at 202000 M⁻¹ s⁻¹.

B4: the Kd amounted to 1.52 nM, the koff is 0.000309 s⁻¹ and the kon was found to be 206000 M⁻¹ s⁻¹.

For the molecule B5, the Kd was 3.96 nM, the koff turned out to be 0.000474 s⁻¹ and the kon is 120000 M⁻¹ s⁻¹.

With B6, the Kd stood at 0.74 nM, the koff amounted to 0.00015 s⁻¹ and the kon was found to be 202000 M⁻¹ s⁻¹.

The target of another assay is T3, recombinant human TREM-1. The assay can be described thus: SPR, Fab immobilised, human TREM-1 injected; replicate 1. The protocol: as §1
Take B1: the Kd amounted to 5.76 nM, the koff was found to be 0.00109 s⁻¹ and the kon worked out at 189000 M⁻¹ s⁻¹.

For the molecule B3, the Kd stood at 0.961 nM, the koff was determined as 0.000209 s⁻¹ and the kon came out at 217000 M⁻¹ s⁻¹.

Take B2: the Kd amounted to 0.261 nM, the koff is 5.31e-05 s⁻¹ and the kon is 203000 M⁻¹ s⁻¹.

Take B4: the Kd came to 1.29 nM, the koff was 0.000297 s⁻¹ and the kon was determined as 229000 M⁻¹ s⁻¹.

With B5, the Kd amounted to 3.89 nM, the koff was 0.000481 s⁻¹ and the kon worked out at 124000 M⁻¹ s⁻¹.

For B6, the Kd worked out at 0.884 nM, the koff came to 0.00018 s⁻¹ and the kon was found to be 204000 M⁻¹ s⁻¹.

In a further assay the target is T3, recombinant human TREM-1. Briefly: SPR, Fab immobilised, human TREM-1 injected; replicate 2. As for the experimental part: as §1
Regarding B1, the Kd is 7.81 nM, the koff was determined as 0.00124 s⁻¹ and the kon is 158000 M⁻¹ s⁻¹.

As to B3, the Kd amounted to 1.07 nM, the koff was found to be 0.000224 s⁻¹ and the kon worked out at 209000 M⁻¹ s⁻¹.

In the case of B2, the Kd was 0.34 nM, the koff worked out at 6.82e-05 s⁻¹ and the kon turned out to be 200000 M⁻¹ s⁻¹.

As for B4, the Kd was determined as 1.75 nM, the koff came to 0.000321 s⁻¹ and the kon was 183000 M⁻¹ s⁻¹.

Take B5: the Kd was 4.03 nM, the koff amounted to 0.000467 s⁻¹ and the kon worked out at 116000 M⁻¹ s⁻¹.

Turning to B6, the Kd stood at 0.595 nM, the koff was found to be 0.000119 s⁻¹ and the kon stood at 200000 M⁻¹ s⁻¹.

The target in another assay is T1, recombinant cynomolgus monkey TREM-1. Briefly: SPR, Fab immobilised, cynomolgus TREM-1 injected; average. As for the experimental part:
as §1
B3: the koff turned out to be 0.000771 s⁻¹ and the kon came to 31400 M⁻¹ s⁻¹.

Consider B2, for which the koff amounted to 0.000243 s⁻¹ and the kon amounted to 31800 M⁻¹ s⁻¹.

Consider B4, for which the koff is 0.000885 s⁻¹ and the kon is 31400 M⁻¹ s⁻¹.

For B5, the koff is 0.00127 s⁻¹ and the kon was found to be 22500 M⁻¹ s⁻¹.

Regarding B6, the Kd came out at 15.8 nM, the koff was found to be 0.000542 s⁻¹ and the on-rate constant (kon) was determined as 34500 M⁻¹ s⁻¹.

B7: the koff is 0.00177 s⁻¹ and the kon was 28900 M⁻¹ s⁻¹.

A further assay shares this target. The assay can be described thus: SPR, Fab immobilised, cynomolgus TREM-1 injected; replicate 1. The protocol: as §1
Regarding B3, the koff is 0.000768 s⁻¹ and the kon amounted to 31000 M⁻¹ s⁻¹.

Turning to B2, the koff is 0.00024 s⁻¹ and the kon amounted to 31600 M⁻¹ s⁻¹.

For B5, the koff stood at 0.00121 s⁻¹ and the kon was found to be 20100 M⁻¹ s⁻¹.

For the molecule B6, the Kd was 15.8 nM, the koff was found to be 0.000539 s⁻¹ and the kon was found to be 34200 M⁻¹ s⁻¹.

B7: the koff is 0.00207 s⁻¹.

The next assay has the same target. Briefly: SPR, Fab immobilised, cynomolgus TREM-1 injected; replicate 2. The protocol:
as §1
On to B3, for which the koff stood at 0.000774 s⁻¹ and the on-rate constant (kon) worked out at 31700 M⁻¹ s⁻¹.

In the case of B2, the koff stood at 0.000245 s⁻¹ and the kon was 31900 M⁻¹ s⁻¹.

For B4, the koff was 0.0009 s⁻¹ and the kon amounted to 31600 M⁻¹ s⁻¹.

For B5, the koff worked out at 0.00133 s⁻¹ and the kon was found to be 24900 M⁻¹ s⁻¹.

As to B6, the Kd came out at 15.7 nM, the koff is 0.000545 s⁻¹ and the kon is 34700 M⁻¹ s⁻¹.

As for B7, the koff stood at 0.00147 s⁻¹ and the kon was found to be 22100 M⁻¹ s⁻¹.

For a further assay the target is unchanged. Briefly: SPR, Fab immobilised, cynomolgus TREM-1 injected; replicate 1; replicate 1. The protocol: Surface plasmon resonance (SPR): in order to evaluate the interaction kinetics for TREM-1 antibodies or Fabs to hTREM-1 (human TREM-1) and cTREM-1 (cynomolgus monkey TREM-1), surface plasmon resonance (SPR) assays were carried out (Biacore™ T200, GE Healthcare Biosciences). The anti-human Fc antibodies (Cytiva) were immobilized on CM5 sensor chip in order to evaluate IgG1 affinities and Fabs were directly immobilized on the chip. Immobilization experiments were performed at 25° C. using HBS-EP+1× running buffer (10 mM HEPES, 150 mM NaCl, 3 mM EDTA, 0.05% surfactant P20, pH 7.4). The anti-human Fc antibodies or Fabs were diluted in 10 mM sodium acetate at acidic pH before the immobilization procedure using amine coupling on the dextran matrix of the sensor chips. […] Following these injections, ethanolamine was injected to deactivate the surface. The immobilization wizard was used to obtain several thousand of immobilized RU (resonance units). The immobilization level was chosen in order to have a proper covering of the sensor chip surface. […] The concentrations were evaluated using the Single Cycle Kinetics method. […] Binding affinity of TREM-1 antibodies or Fabs with hTREM-1 or cTREM-1 was quantified by determination of the equilibrium dissociation constant (KD) determined by measurement of the kinetics of complex formation and dissociation.
With B7, the kon amounted to 35700 M⁻¹ s⁻¹.

For another assay, the target named is T2, human TREM-1 expressed on cells …. The assay can be described thus: flow cytometry on freshly isolated human neutrophils; freshly isolated human neutrophils.
Turning to B2, the EC50 (in general, the concentration at which the effect is half-maximal) is roughly 0.03 µg/mL.

A further assay shares this target. Briefly: flow cytometry on freshly isolated human primary neutrophils, MFI against Fab concentration. A general note: In flow cytometry, cells or beads pass a laser one at a time.
With B2, the EC50 was determined as 0.0281 µg/mL.
